Measured values as given in article PMC9504842, “Comprehensive Metabolic Profiling of Euphorbiasteroid in Rats by Integrating UPLC-Q/TOF-MS and NMR as Well as Microbial Biotransformation” (Metabolites, 2022).

Assay: Metabolite detection in rats (plasma, urine, feces) after oral euphorbiasteroid by UPLC-Q/TOF-MS
Assay type: in vivo, Sprague-Dawley rats
Conditions: single oral dose 100 mg/kg euphorbiasteroid
Description: For metabolite separation and detection, chromatographic analyses were performed using a Waters Acquity UPLC I-class system (Waters, Milford, MA, USA), equipped with an auto-sampler, a binary solvent delivery system, an online degasser, and a photodiode array detector. An ACQUITY UPLC® HSS T3 column (2.1 × 150 mm, 1.8 μm, Waters) protected with a HSS T3 VanGuard ™ Pre-Column 3/Pk (2.1 × 5.0 mm, 1.8 μm, Waters) was used. The optimized parameters were set as follows: the mobile phase consisted of eluent A (0.1% formic acid in water, v/v) and eluent B (acetonitrile). The flow rate was 0.3 mL/min. The column and auto-sampler temperatures were maintained at 40 °C and 4 °C, respectively. The gradient elution program was optimized as follows: 0–9 min, 30–70% B; 9–13 min, 70–90% B; 13–17 min, 90–100% B; 17–20 min, 100–100% B.
The mass spectrometry detection was performed on the SYNAPT G2-Si HDMS system, equipped with an electrospray ionization (ESI) source (Waters Corp., Manchester, UK). A positive ion mode was conducted in this analysis. Mass spectrometry conditions were finally set as follows: capillary voltage of 3.0 kV, cone voltage of 40 V, source temperature of 120 °C, and de-solvation temperature of 400 °C. Nitrogen was used as the desolvation and cone gas with a flow rate of 800 and 50 L/h, respectively, and the full-scan mass range was set as m/z 50–1500 Da. […]

euphorbiasteroid 2′-O-β-D-glucopyranoside [Compound M29]
Distribution Rat Faeces (metabolite detected) (rat faeces): √
Distribution Rat Plasma (metabolite detected) (rat plasma): √
